Test results published in EP0652009A1, “Identification and use of protease inhibitors” (ELI LILLY AND COMPANY, priority 1993, dated 1995).

Protein sequences, listed by entry. Tags and fused reporters are not part of them. Residues count along the entry.
UniProt P07339, 65-412 limits assumed: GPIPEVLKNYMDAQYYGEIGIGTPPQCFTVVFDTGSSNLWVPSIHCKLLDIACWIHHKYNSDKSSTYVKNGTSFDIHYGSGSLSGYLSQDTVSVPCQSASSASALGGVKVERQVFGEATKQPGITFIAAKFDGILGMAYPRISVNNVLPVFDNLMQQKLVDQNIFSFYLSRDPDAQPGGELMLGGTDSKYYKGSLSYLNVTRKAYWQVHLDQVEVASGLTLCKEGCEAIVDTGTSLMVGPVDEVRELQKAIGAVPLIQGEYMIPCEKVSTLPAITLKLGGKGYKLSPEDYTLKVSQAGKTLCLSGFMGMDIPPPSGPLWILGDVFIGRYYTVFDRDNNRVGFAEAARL

Biological target: Cathepsin D (Homo sapiens, UniProt P07339)
Test: Assay 3: cathepsin D inhibition activity (non-cellular assay, chromogenic substrate)
Conditions: cathepsin D from human placental tissue, pH 3.7, 37°C

SMILES | Ki [nM]
CC[C@H](NC(=O)C[C@H](O)[C@H](CC(C)C)NC(=O)[C@@H](NC(=O)[C@H](Cc1cccc2ccccc12)NC(C)=O)C(C)C)C(=O)N[C@@H](Cc1cccc2ccccc12)C(N)=O | 0.53
CCC[C@H](NC(=O)C[C@H](O)[C@H](CC(C)C)NC(=O)[C@H](CCC)NC(=O)[C@H](Cc1cccc2ccccc12)NC(C)=O)C(=O)N[C@@H](Cc1cccc2ccccc12)C(N)=O | 0.54
